Experiments:
[1] = test system: patients with biopsy-proven NASH and fibrosis stages 2-3; test: FLIGHT-FXR (NCT02855164) Part C interim analysis at week 12; assay type: in vivo, human; conditions: for patients achieving relative HFF reduction by ≥30% (without imputation for missing values): week 12
Text: FLIGHT-FXR (NCT02855164) is a phase 2 randomized, double blind, placebo-controlled, 3-part, adaptive-design study to assess the safety, tolerability, and efficacy of several doses of tropifexor (LJN452) in patients with non-alcoholic steatohepatitis (NASH).
METHODS: In Part C, the effects of higher doses of tropifexor on biomarkers and histology will be evaluated over 48 weeks in patients with biopsy-proven NASH and fibrosis stages 2-3. In all, 152 patients (64% females) were randomized to receive placebo (N=51), tropifexor 140 μg (N=50) or tropifexor 200 μg (N=51) once daily. Prespecified endpoints assessed at week 12 included overall safety and changes in alanine aminotransferase (ALT), hepatic fat fraction (HFF), gamma glutamyl transferase (GGT), and body weight.

NASH patients = test: Parts A and B of study CLJN452A2202 in NASH patients, 12 weeks; conditions: 60 and 90 μg, Week 12

With O=C(O)c1cc(F)c2nc(N3C4CCC3CC(OCc3c(-c5ccccc5OC(F)(F)F)noc3C3CC3)C4)sc2c1 [Tropifexor, 2-[(1R,3r,5S)-3-({5-cyclopropyl-3-[2-(trifluoromethoxy)phenyl]-1,2-oxazol-4-yl}methoxy)-8-azabicyclo[3.2.1]octan-8-yl]-4-fluoro-1,3-benzothiazole-6-carboxylic acid] the “patients achieving relative HFF reduction by ≥30% (without imputation for missing values)” value ([1]; 140 μg group) was 32%, the “LS mean relative change (SE) in HFF (MRI-PDFF) from baseline to Week 12” value ([1]; 140 μg once daily, N = 50) was −16.99 (4.64) % and the “patients achieving relative HFF reduction by ≥30% (without imputation for missing values)” value ([1]; 200 μg group) was 64%. The “LS mean relative change (SE) in HFF (MRI-PDFF) from baseline to Week 12” value ([1]; 200 μg once daily, N = 51) was −31.37 (4.30) % and the safety (NASH patients) was “favorable safety”.
